The values below come from ChEMBL document CHEMBL5653606 (J Pharmacol Exp Ther, 2011).

Protein sequences, listed by entry. Tags and fused reporters are not part of them.
UniProt P97612, whole entry: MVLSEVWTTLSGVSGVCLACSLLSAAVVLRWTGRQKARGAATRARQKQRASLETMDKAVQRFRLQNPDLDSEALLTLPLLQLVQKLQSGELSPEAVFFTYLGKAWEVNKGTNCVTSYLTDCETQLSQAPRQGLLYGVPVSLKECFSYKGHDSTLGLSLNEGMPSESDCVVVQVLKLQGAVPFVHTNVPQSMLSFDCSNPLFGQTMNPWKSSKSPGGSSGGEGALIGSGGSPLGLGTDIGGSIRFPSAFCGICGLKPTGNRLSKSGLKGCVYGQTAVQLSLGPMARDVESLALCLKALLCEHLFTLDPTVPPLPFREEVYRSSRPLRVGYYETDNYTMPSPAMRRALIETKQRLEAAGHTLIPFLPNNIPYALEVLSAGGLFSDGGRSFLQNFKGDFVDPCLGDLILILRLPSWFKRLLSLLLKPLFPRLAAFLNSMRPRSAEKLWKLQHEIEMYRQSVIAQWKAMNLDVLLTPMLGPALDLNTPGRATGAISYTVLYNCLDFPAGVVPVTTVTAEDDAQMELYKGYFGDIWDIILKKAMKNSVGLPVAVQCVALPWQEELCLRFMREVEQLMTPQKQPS
UniProt O00519, whole entry: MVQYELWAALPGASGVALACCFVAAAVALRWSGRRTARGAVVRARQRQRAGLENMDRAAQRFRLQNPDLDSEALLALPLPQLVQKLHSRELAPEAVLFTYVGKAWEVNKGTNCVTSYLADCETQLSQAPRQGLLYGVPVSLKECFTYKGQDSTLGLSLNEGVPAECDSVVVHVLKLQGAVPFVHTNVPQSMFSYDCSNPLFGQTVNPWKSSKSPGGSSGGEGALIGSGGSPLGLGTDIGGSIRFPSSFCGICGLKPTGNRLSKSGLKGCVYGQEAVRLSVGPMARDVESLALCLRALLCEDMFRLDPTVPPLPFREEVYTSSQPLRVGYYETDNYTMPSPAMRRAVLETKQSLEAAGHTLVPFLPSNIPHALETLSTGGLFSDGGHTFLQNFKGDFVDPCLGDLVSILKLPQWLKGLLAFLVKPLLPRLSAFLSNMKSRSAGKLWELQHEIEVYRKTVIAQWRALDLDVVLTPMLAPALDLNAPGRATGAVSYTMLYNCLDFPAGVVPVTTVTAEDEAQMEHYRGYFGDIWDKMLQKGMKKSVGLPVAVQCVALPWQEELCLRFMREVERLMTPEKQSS

Assay [1] has as its target Fatty-acid amide hydrolase 1 (Rattus norvegicus) (UniProt P97612). Description: Inhibition of rat FAAH assessed as kinact/Ki ratio in presence of glutamate dehydrogenase by 384-well format microplate reader assay. The essentials:
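Purified recombinant FAAH (>95% pure), human or rat. Glutamate dehydrogenase-coupled assay in 384-well format, 50 μl final volume. NAD⁺ formed from ammonia released by oleamide hydrolysis, followed at 340 nm.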

Assay [2] deals with T1, Fatty-acid amide hydrolase 1 (Homo sapiens, UniProt O00519). Kind of assay: Inhibition of human FAAH assessed as kinact/Ki ratio incubated for 15 min in presence of glutamate dehydrogenase by 384-well format microplate reader assay. The essentials: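 Purified recombinant human FAAH (E. coli-expressed, >95% pure by SDS-PAGE) in a glutamate dehydrogenase-coupled assay in 384-well format. Oleamide is the substrate: ammonia released on hydrolysis drives stoichiometric NAD⁺ formation, monitored spectrophotometrically at 340 nm on a microplate reader. The overall potency, k_inact/K_i, is derived from time-dependent inactivation.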

For assay [3], the target named is T1, Fatty-acid amide hydrolase 1. Description: Inhibition of human FAAH assessed as kinact/Ki ratio in presence of glutamate dehydrogenase by 384-well format microplate reader assay. In short, it runs like this:
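Glutamate dehydrogenase-coupled assay in 384-well format, 50 μl final volume. NAD⁺ formed from ammonia released by oleamide hydrolysis, followed at 340 nm.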

For `O=C(Nc1cccnn1)N1CCC(=Cc2cccc(Oc3ccc(C(F)(F)F)cn3)c2)CC1`, the Ratio in assay [1] worked out at 32400 M⁻¹ s⁻¹; in assay [3] it was 40300 M⁻¹ s⁻¹. For the same compound, the IC50 in assay [2] worked out at 0.0324 µM.
